Experimental data as given in patent US20020173491A1, “DAPD combination therapy with inosine monophosphate dehydrogenase inhibitor” (priority 2000, published 2002).

System: PBMCs
Experiment: XTT based cytotoxicity assay, PBMC
Format: cell-based
Details: at concentrations up to 1 MM

NC(=O)c1ncn([C@@H]2O[C@H](CO)[C@@H](O)[C@H]2O)n1 [RBV, 1-β-D-ribofuranosyl-1,2,4-triazole-3-carboxamide]
toxicity to PBMCs: not toxic
